Assay results as given in ChEMBL document CHEMBL5126587, “Anti-HCV and Zika activities of ribavirin C-nucleosides analogues” (Bioorg Med Chem, 2022).

What was measured:
Format in all cases: functional, organism-based
Hepatitis C virus = conditions: Hepacivirus hominis; genotype 2a (JFH-AM71); Huh7-J20; time 72.0 hrs
Zika virus [1] = conditions: H/PAN/2016/BEI-259634, Vero, time 3.0 day
Zika virus [2] = conditions: H/PAN/2016/BEI-259634, Huh7.5, time 3.0 day

Compound	Activity (Hepatitis C virus)	Activity (Zika virus [1])	Activity (Zika virus [2])
NC(=O)c1ncn([C@@H]2O[C@H](CO)[C@@H](O)[C@H]2O)n1 [RIBAVIRIN]	Dde		
NC(=O)c1n[nH]nc1[C@@H]1O[C@H](CO)[C@@H](O)[C@H]1O	Dde		
O=C(NO)c1n[nH]nc1[C@@H]1O[C@H](CO)[C@@H](O)[C@H]1O	Dde	Dde	Dde
O=C(NCCCO)c1n[nH]nc1[C@@H]1O[C@H](CO)[C@@H](O)[C@H]1O	Dde		
CCCNC(=O)c1n[nH]nc1[C@@H]1O[C@H](CO)[C@@H](O)[C@H]1O	Dde		
